Target: T1, EMC2-8 complex (recombinant EMC2 with recombinant EMC8) (human, UniProt Q15006 1-297; O43402 1-210)
T1 sequence 1: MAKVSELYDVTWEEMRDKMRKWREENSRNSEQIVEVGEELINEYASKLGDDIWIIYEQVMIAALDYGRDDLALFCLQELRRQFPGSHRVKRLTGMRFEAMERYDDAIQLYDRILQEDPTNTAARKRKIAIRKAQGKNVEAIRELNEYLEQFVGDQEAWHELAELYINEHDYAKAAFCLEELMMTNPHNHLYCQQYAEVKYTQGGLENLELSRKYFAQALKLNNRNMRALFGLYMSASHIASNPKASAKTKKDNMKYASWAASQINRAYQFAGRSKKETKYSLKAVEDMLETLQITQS
T1 sequence 2: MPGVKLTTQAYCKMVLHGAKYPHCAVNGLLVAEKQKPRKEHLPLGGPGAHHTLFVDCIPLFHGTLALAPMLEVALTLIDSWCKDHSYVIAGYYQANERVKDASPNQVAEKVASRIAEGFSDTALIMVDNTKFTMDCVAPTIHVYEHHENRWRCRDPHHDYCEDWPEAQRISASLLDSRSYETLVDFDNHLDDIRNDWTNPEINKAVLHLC
Assay: co-IP

binding result: binds
B1: EMC5 C-terminus (5-CT; residues 66-131)-3xFLAG (domain or fragment, human, UniProt Q8N4V1 66-131, looked up)
chain: EFKDMDATSELKNKTFDTLRNHPSFYVFNHRGRVLFRPSDTANSSNQDALSSNTSLKLRKLESLRR

Reference: publication PMC8254792 (Molecular cell, 2021)
